Tested on: ERK phosphorylation
Assay: ERK phosphorylation after IL2 (Western blot)
Format: cell-based
Details: IL2 stimulation 24 hours, 3 donors
Description: Cells were stimulated as indicated then 0.5x10^6 cells were harvested and pelleted at 400xg for 2 minutes. The pellets were washed with ice-cold PBS, centrifuged as before and lysed in 50μl of 1x RIPA buffer (Millipore) supplemented with 1x protease and phosphatase inhibitor (Abcam). The cells were incubated on ice for 15 minutes, vortexed and incubated for further 15 minutes. The lysate was clarified by centrifuging the cells at 13000xg for 10 minutes at 4°C, protein concentration was determined using the BCA Protein assay Kit (Pierce) and stored at -80°C until use. Prior to gel electrophoresis lysates were mixed with NuPAGE™ LDS Sample Buffer (4X) (Invitrogen™) and heated at 95°C for 10 minutes. Samples (4µg) were resolved on a premade 4–20% Mini-PROTEAN® TGX™ Precast Gel (Abcam).
Post-separation, SDS-PAGE gel was transferred to Trans-Blot Turbo Midi 0.2 µm PVDF membrane (Abcam) using Trans-Blot® Turbo™ Midi by semi-dry transfer (Abcam). Following transfer, membranes were blocked with 1x TBST (Sigma) supplemented with 5% BSA for 24 hours at 4°C. […]
stimulated with IL2 for 24 hours and phosphorylation of ERK assessed by Western blot. […]
representative donor is shown. B) The ratio of phosphorylated ERK: total ERK was assessed for […]
stimulation, as indicated, was assessed for 6 independent donors. […]

## IL2: cytokine used to stimulate T cells
  ERK phosphorylation: promoted ERK phosphorylation
